Results taken from PubChem BioAssay AID588814 (The Scripps Research Institute Molecular Screening Center, 2011).
“And” between values parts separate entries of the source, which are not always exact repeats. Identical values can stand only once. This is a selection; strong and weak results do not stand in their true shares. The source made the active and inactive calls.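 Rule for the calls: active = activation above the run's mean compound activation plus 3 SD (cut at about 16% in these data); inactive = the rest.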

By UniProt entry, the sequences of proteins in these tests, tags left out. Where a name states a change or a piece, a line headed by the entry shows the natural chain unless it says otherwise.
UniProt P11229: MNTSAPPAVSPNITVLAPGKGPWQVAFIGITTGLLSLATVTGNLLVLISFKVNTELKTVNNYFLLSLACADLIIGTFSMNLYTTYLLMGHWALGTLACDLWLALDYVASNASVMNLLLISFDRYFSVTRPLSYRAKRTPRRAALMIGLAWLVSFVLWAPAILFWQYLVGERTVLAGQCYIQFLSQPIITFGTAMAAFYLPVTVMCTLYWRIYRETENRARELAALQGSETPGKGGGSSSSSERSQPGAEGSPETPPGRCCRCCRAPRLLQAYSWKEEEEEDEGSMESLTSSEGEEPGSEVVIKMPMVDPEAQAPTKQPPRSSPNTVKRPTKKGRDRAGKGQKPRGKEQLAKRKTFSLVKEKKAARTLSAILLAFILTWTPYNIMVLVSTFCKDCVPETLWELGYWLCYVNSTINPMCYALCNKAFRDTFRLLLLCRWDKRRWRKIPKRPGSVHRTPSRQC

Target: Muscarinic acetylcholine receptor M1 (Homo sapiens) (UniProt P11229)
Experiment: CHRM1 activation via calcium signal – Fluo-8 calcium fluorescence, CHO-K1 cells, HTS, primary screen (AID 588814);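 note: peak over basal fluorescence ratio within a 140 s kinetic read after compound addition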
Details: CHO-K1 hM1, Fluo-8 calcium fluorescence, agonist mode; at 3 µM; active compounds read high; 0% DMSO, 100% acetylcholine EC100

| Structure (SMILES) | activation |
| --- | --- |
| CN(C(=O)Cc1ccc(Cl)c(Cl)c1)[C@H]1CC[C@@]2(CCCO2)C[C@@H]1N1CCCC1 | inactive: -3.46% |
| O=[N+]([O-])c1ccc2c(c1)nnn2O | inactive: -1.05% |
| CN(C)C(=O)c1cc([N+](=O)[O-])cc2c1-c1c(cc([N+](=O)[O-])cc1[N+](=O)[O-])C2=O | inactive: 4.85% |
| CCOP1(=S)c2c(C)nn(CCC#N)c2N=C(c2ccc(F)cc2)N1C (stereo not drawn) | inactive: 2.16% |
| CN(C(=O)Cc1ccccc1)[C@@H]1CC[C@]2(CCCO2)C[C@H]1N1CCCC1 | inactive: -4.02% |
| N#CCCN(C(=O)COC(=O)C(O)(c1ccccc1)c1ccccc1)c1ccc(F)cc1 | inactive: -1.86% |
| COc1ccc(CC(C)NCC(O)c2ccc(O)c(NC=O)c2)cc1 (stereo not drawn) | inactive: -6.9% and inactive: -7.18% |
| NC(=O)Nc1ccc([As](=O)(O)O)cc1 | inactive: -3.63% |
| O=C(O)COc1ccc([As](=O)(O)O)cc1[N+](=O)[O-] | inactive: 0.1% |
| Nc1ccccc1[As](=O)(O)c1ccccc1 | inactive: -1.65% |
| CS(=O)(=O)c1cc([N+](=O)[O-])c2no[n+]([O-])c2c1 | inactive: -2.04% |
| O=P(Nc1nccs1)(Oc1ccccc1)Oc1ccccc1 | inactive: -2.52% |
| O=P(Nc1nccs1)(c1ccccc1)c1nc2ccccc2s1 (stereo not drawn) | inactive: -3.41% |
| CCOP1(=S)c2c(C)nn(CCC#N)c2N=C(c2ccccc2F)N1C (stereo not drawn) | inactive: -6.39% |
| CCOP(=O)(Nc1cccc2ccccc12)OCC | inactive: -5.81% |
| COc1cc(C2NCCC3(OCCO3)C2(C)C)cc(OC)c1OC (stereo not drawn) | inactive: -6.01% |
| CCCOP(=S)(Nc1nc(N)cc(=O)[nH]1)OCCC | inactive: -5.94% |
| Nc1cccc2c([As](=O)(O)O)cccc12 | inactive: 8.19% |
| Cc1ccc(NCCc2c([N+](=O)[O-])cc([N+](=O)[O-])cc2[N+](=O)[O-])cc1 | inactive: -3.41% |
| COc1ccc(C[C@H]2NC[C@H](O)[C@H]2OC(C)=O)cc1 | inactive: -3.53% |
| Cc1cccc(OCC(=O)OC2CN3CCC2CC3)c1 (stereo not drawn) | inactive: -4.98% |

| Structure (SMILES) | activation |
| --- | --- |
| O=[As](O)(c1cccc(O)c1)c1cccc(O)c1 | inactive: -1.07% |
| CS(=O)(=O)c1ccc(Cl)c(NC(=O)COC(=O)C(O)(c2ccccc2)c2ccccc2)c1 | inactive: 1.59% |
| O=[As](O)(O)c1cccnc1 | inactive: -0.98% |
| O=C(OC1CN2CCC1CC2)c1ccc(Cl)cc1 (stereo not drawn) | inactive: -9.31% |
| CC1(CBr)Cn2c(nc3ccccc3c2=O)S1 (stereo not drawn) | inactive: -3.29% |
| CN(C(=O)Cc1ccc(Cl)c(Cl)c1)[C@@H]1CCCC[C@H]1N1CCCC1 | inactive: -6.99% |
| CC(C)/C=N\N=C(\N)N[N+](=O)[O-] | inactive: -3.53% |
| COc1ccccc1CNC(=O)COC(=O)C(O)(c1ccccc1)c1ccccc1 | inactive: -2.84% |
| CC(C)(C)C(=O)NC(Sc1ncccn1)C(Cl)(Cl)Cl (stereo not drawn) | inactive: -3.03% |
| Clc1n[nH]nc1-c1nn[nH][15n]1 | inactive: -1.65% |
| O=P1(N(CCCl)CCCl)NCCC(C(F)(F)F)O1 (stereo not drawn) | inactive: 0.65% |
| CCOP(=O)(Nc1ccc(C)cn1)OCC | inactive: -4.36% |
| CN(CCCl)Cc1cc(Cl)c(NC2=NCCN2)c(Cl)c1 | inactive: -7.53% |
| CCOP(=O)(NC(=NC(C)c1ccccc1)NC(C)c1ccccc1)OCC (stereo not drawn) | inactive: -0.42% |
| CCC1=CC2Cc3nc4ccc(Cl)cc4c(N)c3C(C1)C2 (stereo not drawn) | inactive: -8.15% |
| O=P1(Nc2ccccn2)COc2ccccc2OC1 | inactive: 0.07% |
| O=[As](O)(c1cccs1)c1cccs1 | inactive: -0.08% |
| Cc1ccc(OCC(=O)OC2CN3CCC2CC3)cc1 (stereo not drawn) | inactive: -6.44% |
| NS(=O)(=O)c1cccc(NC(=O)COC(=O)C(O)(c2ccccc2)c2ccccc2)c1 | inactive: -3.98% |
| O=P1(Nc2ccc(Br)cn2)COc2ccccc2OC1 | inactive: -3.51% |
| Nc1cccc([As](=O)(O)c2ccccc2)c1 | inactive: -3.45% |

| Structure (SMILES) | activation |
| --- | --- |
| O=P1(Nc2ncccn2)COc2ccccc2OC1 | inactive: -2.85% |
| Cc1ccc(S(=O)(=O)N(CCCN)CCCc2c(C)nc(N)[nH]c2=O)cc1 | inactive: -11.4% |
| CCCC1OP(=O)(Nc2ccccc2)OCC1CC (stereo not drawn) | inactive: -2.31% |
| O=C(/C=C/c1ccccc1)OC1CN2CCC1CC2 (stereo not drawn) | inactive: -4.68% |
| Cc1ccc(C(=O)OC2CN3CCC2CC3)cc1 (stereo not drawn) | inactive: -10% |
| CC1CCC(C(C)C)C(OP(=O)(Nc2ccccn2)c2ccccc2)C1 (stereo not drawn) | inactive: 0.32% |
| Cc1nn(-c2ccccc2)c2c1P(=O)(N1CCOCC1)N(C)C(c1ccccc1)=N2 (stereo not drawn) | inactive: -5.45% |
| O=[N+]([O-])c1ccc(Nc2ccc(Oc3ccc([N+](=O)[O-])cc3[N+](=O)[O-])cc2)c([N+](=O)[O-])c1 | inactive: -1.39% |
| Cc1cc(SC(NC=O)C(Cl)(Cl)Cl)ncn1 (stereo not drawn) | inactive: -2.41% |
| O=P(Nc1ccccn1)(c1cccc2ccccc12)c1cccc2ccccc12 | inactive: -3.55% |
| CCOC(=O)Nc1cccc([As](=O)(O)O)c1 | inactive: 3.2% |
| Cc1cc(SC(NC(=O)c2ccccc2)C(Cl)(Cl)Cl)nc(C(C)C)n1 (stereo not drawn) | inactive: -6.76% |
| COP(=O)(OC)N1CC1c1ccccc1 (stereo not drawn) | inactive: -3.34% |
| C/C=C1/CC(C)C(C)(O)C(=O)OCC2CCN3CCC(OC1=O)C23 (stereo not drawn) | inactive: -9.15% |
| CC1CCNP(=O)(N(CCCl)CCCl)O1 (stereo not drawn) | inactive: -0.91% |
| O=C(O)C(O)c1ccc(N(CCCl)CCCl)cc1 (stereo not drawn) | inactive: -1.54% |
| CCOC(=O)Nc1ccc([As](=O)(O)O)c(O)c1 | inactive: -2.16% |
| CCC(C)N(CC(C)C)C(=S)SC(NC(C)=O)C(Cl)(Cl)Cl (stereo not drawn) | inactive: -3.01% |
| CCOC(=O)c1ccc(NC(=O)C(C)(CCl)SC)cc1 (stereo not drawn) | inactive: -3.46% |
| CSc1ccc(Nc2c([N+](=O)[O-])cc([N+](=O)[O-])cc2[N+](=O)[O-])cc1 | inactive: -0.32% |
| O=C(OC1CN2CCC1CC2)c1cccc([N+](=O)[O-])c1 (stereo not drawn) | inactive: -8.18% |
